Values of other authors in patent publication US20240165107A1, “Long Acting Injectable Compositions of Cariprazine or its Pharmaceutically Acceptable Salts” (Cipla Limited, priority 2021, published 2024).

By UniProt entry, the sequences of proteins in these tests, tags left out.
UniProt P14416, whole entry: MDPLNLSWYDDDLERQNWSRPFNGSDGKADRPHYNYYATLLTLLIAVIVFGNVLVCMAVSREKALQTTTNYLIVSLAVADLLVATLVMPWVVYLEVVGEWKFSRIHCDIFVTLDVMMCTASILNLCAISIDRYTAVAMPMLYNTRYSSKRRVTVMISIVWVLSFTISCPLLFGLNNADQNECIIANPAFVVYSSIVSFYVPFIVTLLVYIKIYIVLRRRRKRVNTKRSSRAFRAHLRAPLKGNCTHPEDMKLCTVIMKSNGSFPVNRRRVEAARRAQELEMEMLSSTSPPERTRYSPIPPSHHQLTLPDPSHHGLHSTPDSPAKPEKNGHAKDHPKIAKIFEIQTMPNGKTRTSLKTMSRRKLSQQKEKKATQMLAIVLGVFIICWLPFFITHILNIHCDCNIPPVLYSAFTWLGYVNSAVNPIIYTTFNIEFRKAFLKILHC

Biological target: dopamine D2 receptors (Homo sapiens, UniProt P14416)
Details: partial agonist

CN(C)C(=O)N[C@H]1CC[C@H](CCN2CCN(c3cccc(Cl)c3Cl)CC2)CC1 [Cariprazine, trans-N-{4-[2-[4-(2,3-dichlorophenyl)piperazine-1-yl]ethyl]cyclohexyl}-N′,N′-dimethylurea]
binding affinity: high binding affinity
